Measured values as given in patent US6723235B2, “Apparatus for screening compound libraries” (priority 1998, dated 2004).

Target: human α-thrombin (Homo sapiens, UniProt P00734)
Assay: FC-MS screening on immobilized human α-thrombin column

With `N=C(N)NCCC[C@H](NC(=O)[C@@H]1CCCN1C(=O)[C@H](N)Cc1ccccc1)C(=O)O` the “maximum intensity of indicator relative to infusion concentration (roll-up effect)” value (1 μM fPR with 1 μM fPR-chloromethyl ketone, column approximately 50 pmol active protein, FIG. 16B) was “approximately 3 times” and the “V−V0” value (fresh column, void marker and peptide alone, 1 μM each) was “approximately twice the value measured from the mixture”.
